AlphaSeq binding of Ab-14 light chain variants to a spike HR2 peptide

Target: peptide PDVDLGDISGINAS, taken from heptad repeat 2 (HR2) of SARS-CoV-2 spike.

The variants keep the heavy chain, the linker and the frameworks of Ab-14 (scFv order VH, a 15-residue (Gly4Ser)3 linker, VL).
VH: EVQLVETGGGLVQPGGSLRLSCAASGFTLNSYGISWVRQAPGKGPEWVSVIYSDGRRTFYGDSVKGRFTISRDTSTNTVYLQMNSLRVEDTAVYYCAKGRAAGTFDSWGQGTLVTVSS
VL: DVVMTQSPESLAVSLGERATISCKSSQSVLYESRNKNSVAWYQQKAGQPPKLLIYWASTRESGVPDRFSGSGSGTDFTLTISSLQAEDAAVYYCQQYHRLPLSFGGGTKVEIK

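AAYL50 was designed without a model: most single CDR substitutions and a random sample of double and triple ones. In AlphaSeq, yeast of one mating type display the scFv and yeast of the other type display the target. Mating (16 h, 30 °C) was followed by selection of diploids and sequencing of their barcodes. Scores were corrected for input abundance and mapped to Kd with protein pairs of known affinity run in the same pool. There are three technical replicates.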

Each variant is given by its three light chain CDRs, as the data file delimits them; those of the parent are KSSQSVLYESRNKNSVA, WASTRES, QQYHRLPLS.
All variants listed here change N35 of the VL, counted from its first residue.
The Kd shown is the geometric mean over detected replicates; a lower Kd is a better binder.
"nd" marks a missing value. The strain was present, yet no cells mated with the target were sequenced in any replicate, which points to weak or no binding.
Empty control strains, which show no peptide, gave a signal in 18% of pairings with library AAYL50; the median was 15 µM and 95% of these signals were weaker than 970 nM. No background was subtracted. Also given: how often the same scFv was detected with the empty control strains.

Variant KSSQSRLYESRWMNSVA | WASTRES | QQYHRLPLS gave 15 nM (3 of 3 replicates; controls 1 of 9). For KSSQSVLYESRSKNSVA | WASVRES | QQYRRLPLS, the assay gave 29 nM (3 of 3 replicates; controls 1 of 9). With KSNQSVLYESRKKNSVA | WASTRES | QQKHRLPLS the result was nd (0 of 3 replicates; controls 7 of 9). Variant KSSQSVLYESRVKNSVA | WAYTCES | QQYHRLPLS showed 1.2 µM (2 of 3 replicates; controls 1 of 9). With KVSQSVLYESRLKNSFA | WASTRES | QQYHRLPLS the result was 340 nM (3 of 3 replicates; controls 5 of 9). With KSSQSVLYESREFNSVA | WASTRES | QQYHRLWLS the result was 8.2 nM (3 of 3 replicates; controls 0 of 9). Variant KSSQSVLYESRGKNSVA | WASTRES | QTYHRLPLS showed 18 nM (3 of 3 replicates; controls 4 of 9).

With KSSQSVPYESRHKNSVA | WASTRES | QQYHRLKLS the result was 82 nM (3 of 3 replicates; controls 1 of 9). With KSSQSMLYESRGKNSVA | WASTRES | QQYHRLQLS the result was 20 nM (3 of 3 replicates; controls 3 of 9). Variant KSSQSVLKESRQKNSVA | WWSTRES | QQYHRLPLS gave 35 µM (2 of 3 replicates; controls 7 of 9). For KSSQSVLYESRHKNSQA | WASTRES | QQYHRLPLS, the assay gave nd (0 of 3 replicates; controls 2 of 9). For KSSQNVLYESCCKNSVA | WASTRES | QQYHRLPLS, the assay gave 8.9 nM (3 of 3 replicates; controls 5 of 9). For KSSQSVLYESRPKNSVA | WASTRES | QQYHRLPFS, the assay gave 100 nM (3 of 3 replicates; controls 0 of 9). For KSSQSVLYESRRKNSVA | WASTRES | QQVHRLKLS, the assay gave 17 µM (2 of 3 replicates; controls 1 of 9).

Variant KSSQSVMYESRDKNSVA | WASTRES | QFYHRLPLS gave 23 nM (3 of 3 replicates; controls 0 of 9). Variant KSPQSVCYESRCKNSVA | WASTRES | QQYHRLPLS showed 14 nM (3 of 3 replicates; controls 0 of 9). For KSSQSVLYESGTKNSVA | WASTRES | QQYDRLPLS, the assay gave 14 nM (3 of 3 replicates; controls 2 of 9). Variant KSSQMMLYESRAKNSVA | WASTRES | QQYHRLPLS showed 11 nM (3 of 3 replicates; controls 1 of 9). For KSSQGVLYESRTKNSVA | WGSTRES | QQYHRLPLS, the assay gave 6.6 nM (3 of 3 replicates; controls 6 of 9). With KSSQSVLYESRVKNSVA | WASTRES | QQYHRLPLS the result was 19 nM (3 of 3 replicates; controls 2 of 9). Variant KSSQSVLYESRVKCSVA | WASTRES | QQYHRLPLS gave 130 nM (3 of 3 replicates; controls 0 of 9).

For KSSQSVLYESRPKNSVA | WASTCED | QQYHRLPLS, the assay gave 37 µM (1 of 3 replicates; controls 4 of 9). Variant KSSQSVLYESRRKNEVA | WASTRES | QQYHRLPLC showed nd (0 of 3 replicates; controls 0 of 9). Variant KSCQSVLYESRIKNSVA | WASPRES | QQYHRLPLS showed 1.1 µM (1 of 3 replicates; controls 0 of 9). For KSSQSVLYESQGKNPVA | WASTRES | QQYHRLPLS, the assay gave 110 nM (3 of 3 replicates; controls 6 of 9). For KSSQSVLYESREKNSHA | WASTRES | QQYHRLKLS, the assay gave 23 µM (1 of 3 replicates; controls 4 of 9). With KISQSVLYESREKNSVA | WASTRES | QQYHRLPLS the result was 16 µM (3 of 3 replicates; controls 4 of 9). With KQSQSVLYESRHKNSVA | WASTRES | QIYHRLPLS the result was 29 µM (2 of 3 replicates; controls 0 of 9).

With KSSQSVLYESRWKNHVA | WASTRES | QQYHRLPLP the result was 450 nM (1 of 3 replicates; controls 1 of 9). Variant KISQSVLYESRFKNSVF | WASTRES | QQYHRLPLS showed 1.4 µM (1 of 3 replicates; controls 3 of 9). Variant KSSQSVLYESRFKNSVA | WASTWES | QQYHRLPGS showed 200 µM (2 of 3 replicates; controls 3 of 9). For KSSQSVLYESRGKNSVA | WASTRIS | QQYHRLPLS, the assay gave 41 nM (3 of 3 replicates; controls 2 of 9). Variant KWSQSVLYESRAKNSVA | WASTRES | QQYYRLPLS showed 4.9 nM (3 of 3 replicates; controls 1 of 9). For KSSQSVLYELKYKNSVA | WASTRES | QQYHRLPLS, the assay gave 410 nM (1 of 3 replicates; controls 0 of 9). For KSSQSVLYESRPKNSVA | WASIRES | QQYHELPLS, the assay gave 7.0 µM (3 of 3 replicates; controls 4 of 9).

The first 3 variants above that were never detected:

CDR-L1	CDR-L2	CDR-L3	Kd	seen in	control signals
KSNQSVLYESRKKNSVA	WASTRES	QQKHRLPLS	nd	0/3	7/9
KSSQSVLYESRHKNSQA	WASTRES	QQYHRLPLS	nd	0/3	2/9
KSSQSVLYESRRKNEVA	WASTRES	QQYHRLPLC	nd	0/3	0/9

Parent in this assay: reference entry 4.4 nM, copy in this library 48 nM.

Source: Engelhart et al. 2022 (doi:10.1038/s41597-022-01779-4), MIT Lincoln Laboratory and A-Alpha Bio; data file from the FLAb repository.